Entries after “also recorded” stand apart in the source; their conditions may differ.
Legend:
[1] = molecular target: CDK3/cyclin E (Homo sapiens, UniProt Q00526); assay: Millipore KinaseProfilerXL kinase activity, dose titration; assay type: biochemical; settings: 5-log dose titration 0.001-10μM
[2] = molecular target: CDK1/cyclin B (Homo sapiens, UniProt P06493); assay: as above; assay type: biochemical; settings: 5-log dose titration 0.001-10μM
[3] = molecular target: CDK5/p35 (Homo sapiens, UniProt Q00535); assay: as above; assay type: biochemical; settings: 5-log dose titration 0.001-10μM
[4] = molecular target: CDK6/cyclin D3 (Homo sapiens, UniProt Q00534); assay: as above; assay type: biochemical; settings: 5-log dose titration 0.001-10μM
[5] = test system: MM.1S cells; assay: Cell death commitment assay; assay type: cell-based, human; settings: 0.5 μM, 2-24 hrs, washout, additional 72 hrs drug-free
[6] = molecular target: CDK5/p25 (Homo sapiens, UniProt Q00535); assay: Millipore KinaseProfilerXL kinase activity, dose titration; assay type: biochemical; settings: 5-log dose titration 0.001-10μM
[7] = molecular target: CDK9/cyclin T1 (Homo sapiens, UniProt P50750); assay: as above; assay type: biochemical; settings: 5-log dose titration 0.001-10μM
[8] = molecular target: CDK7/cyclin H (Homo sapiens, UniProt P50613); assay: as above; assay type: biochemical; settings: 5-log dose titration 0.001-10μM

By UniProt entry, the sequences of proteins in these tests, tags left out. Where a name states a change or a piece, a line headed by the entry shows the natural chain unless it says otherwise.
UniProt Q00526: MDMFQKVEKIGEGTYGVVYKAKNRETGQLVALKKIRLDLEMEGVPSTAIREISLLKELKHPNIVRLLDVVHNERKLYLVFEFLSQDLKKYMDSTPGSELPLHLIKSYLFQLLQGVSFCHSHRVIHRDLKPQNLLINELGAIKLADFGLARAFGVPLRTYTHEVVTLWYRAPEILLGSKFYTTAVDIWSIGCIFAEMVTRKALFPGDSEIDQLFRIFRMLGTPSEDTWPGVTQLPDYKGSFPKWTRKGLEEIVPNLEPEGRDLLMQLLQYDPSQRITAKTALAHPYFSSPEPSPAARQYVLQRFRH
UniProt P06493, whole entry: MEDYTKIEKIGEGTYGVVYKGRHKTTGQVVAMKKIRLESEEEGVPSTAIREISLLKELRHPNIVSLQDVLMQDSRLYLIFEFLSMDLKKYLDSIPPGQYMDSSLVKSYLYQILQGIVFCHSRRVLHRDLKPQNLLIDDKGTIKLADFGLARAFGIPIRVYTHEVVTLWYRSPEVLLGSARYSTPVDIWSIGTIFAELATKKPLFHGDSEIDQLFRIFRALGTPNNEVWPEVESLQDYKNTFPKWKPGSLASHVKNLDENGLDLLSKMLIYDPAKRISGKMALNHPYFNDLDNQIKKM
UniProt Q00535, whole entry: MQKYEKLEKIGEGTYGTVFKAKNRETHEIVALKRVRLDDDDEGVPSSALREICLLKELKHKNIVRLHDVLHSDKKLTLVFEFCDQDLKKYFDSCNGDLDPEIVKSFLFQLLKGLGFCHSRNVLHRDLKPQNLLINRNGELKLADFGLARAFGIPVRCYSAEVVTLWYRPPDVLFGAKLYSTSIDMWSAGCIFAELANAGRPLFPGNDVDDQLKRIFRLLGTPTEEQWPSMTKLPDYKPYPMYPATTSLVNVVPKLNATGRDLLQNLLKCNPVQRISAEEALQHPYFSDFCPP
UniProt Q00534, whole entry: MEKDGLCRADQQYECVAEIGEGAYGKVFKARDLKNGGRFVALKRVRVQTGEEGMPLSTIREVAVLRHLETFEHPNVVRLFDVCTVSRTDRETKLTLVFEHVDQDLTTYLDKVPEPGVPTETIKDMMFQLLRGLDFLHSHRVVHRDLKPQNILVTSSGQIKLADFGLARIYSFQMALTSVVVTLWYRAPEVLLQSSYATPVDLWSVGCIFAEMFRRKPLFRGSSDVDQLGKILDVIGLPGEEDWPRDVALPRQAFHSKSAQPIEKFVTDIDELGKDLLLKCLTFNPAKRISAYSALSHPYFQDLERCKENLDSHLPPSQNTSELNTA
UniProt P50750, whole entry: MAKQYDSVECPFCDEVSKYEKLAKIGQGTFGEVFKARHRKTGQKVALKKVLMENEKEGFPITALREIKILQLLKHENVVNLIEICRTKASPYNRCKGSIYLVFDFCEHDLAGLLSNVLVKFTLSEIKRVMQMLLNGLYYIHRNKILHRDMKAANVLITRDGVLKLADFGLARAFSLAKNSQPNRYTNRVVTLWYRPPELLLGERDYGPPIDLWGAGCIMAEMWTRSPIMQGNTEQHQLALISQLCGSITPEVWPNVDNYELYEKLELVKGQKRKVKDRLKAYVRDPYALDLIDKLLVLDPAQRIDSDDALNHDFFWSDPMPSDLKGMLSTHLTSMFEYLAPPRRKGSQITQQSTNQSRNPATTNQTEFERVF
UniProt P50613: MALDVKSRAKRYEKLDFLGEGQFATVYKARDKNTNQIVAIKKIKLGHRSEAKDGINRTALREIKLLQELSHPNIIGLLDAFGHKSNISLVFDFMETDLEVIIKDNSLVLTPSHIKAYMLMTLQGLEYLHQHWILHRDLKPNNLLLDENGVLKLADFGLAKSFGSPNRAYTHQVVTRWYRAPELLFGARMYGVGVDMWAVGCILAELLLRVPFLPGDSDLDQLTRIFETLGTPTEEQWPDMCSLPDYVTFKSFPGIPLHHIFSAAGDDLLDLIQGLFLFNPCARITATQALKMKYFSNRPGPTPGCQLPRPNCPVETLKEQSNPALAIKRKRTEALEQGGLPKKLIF

In the case of `CS(=O)(=O)N1CCC(NC(=O)c2[nH]ncc2NC(=O)c2c(Cl)cccc2Cl)CC1` [LCQ195], the “in vitro kinase activity in dose titration” value (“in vitro kinase activity” below) [1] is reported as “active, although with higher IC50 values; also recorded: active at sub-μM concentrations”, the “in vitro kinase activity” value [2] is reported as “active at sub-μM concentrations” and the “in vitro kinase activity” value [3] is reported as “active at sub-μM concentrations”. For the same compound, the “in vitro kinase activity” value [4] was “active, although with higher IC50 values; also recorded: active at sub-μM concentrations”, the “duration of treatment resulting in commitment to death” value [5] was < 24 h and the “in vitro kinase activity” value [6] was “active at sub-μM concentrations”. The “in vitro kinase activity” value [7] was “active, although with higher IC50 values; also recorded: active at sub-μM concentrations” and the “in vitro kinase activity” value [8] was “active, although with higher IC50 values”.

— publication PMC4042406 (British journal of haematology, 2011)
